Literature values, collected in patent US20050244328A1 (priority 2002, published 2005).

Conditions: chlorine dioxide gas; cited from earlier work

For Chlorine dioxide, the “pressure above which the gas is unstable and explosive” value is given as “over 40 kPA”.
